# Laboratory results published in US8748182B2, “Mutant proteins and methods for producing them” (Heptares Therapeutics Limited, priority 2007, dated 2014).
# Amino acid sequences for entries named in this document (tags omitted).
# UniProt P29274, whole entry A54L/T88A/K122A/V239A: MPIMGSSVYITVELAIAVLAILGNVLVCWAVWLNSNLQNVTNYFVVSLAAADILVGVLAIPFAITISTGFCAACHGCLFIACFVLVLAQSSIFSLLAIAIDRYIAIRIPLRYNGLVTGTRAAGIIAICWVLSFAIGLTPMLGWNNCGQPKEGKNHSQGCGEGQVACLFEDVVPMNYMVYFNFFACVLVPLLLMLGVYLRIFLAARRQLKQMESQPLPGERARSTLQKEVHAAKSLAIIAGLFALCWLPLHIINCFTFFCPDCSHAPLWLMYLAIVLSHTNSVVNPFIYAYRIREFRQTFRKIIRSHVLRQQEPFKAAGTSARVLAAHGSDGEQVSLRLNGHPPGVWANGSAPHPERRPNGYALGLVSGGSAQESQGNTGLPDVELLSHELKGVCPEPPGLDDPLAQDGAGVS
# Columns and labels:
# [1] = molecular target: thermo-stable mutant Rant 21 (A2aR) (Homo sapiens, UniProt P29274, A54L/K122A/T88A/V239A); assay: Competition assay against [3H]ZM241385, detergent-solubilised mutant Rant 21; details: read-out: Ki (M) Rant 21; [3H]ZM241385 10 nM, 1 h on ice, […] DDM, 400 mM NaCl; Cheng-Prusoff
# wild-type A2aR = wild-type A2aR (Homo sapiens, UniProt P29274); assay: Competition assay against [3H]ZM241385, detergent-solubilised wild-type A2aR; details: read-out: Ki (M) wt; [3H]ZM241385 10 nM, 1 h on ice, […] DDM, 400 mM NaCl; Cheng-Prusoff
substance,measurement,setting,value
R-PIA,Ki,[1],0.0036 M
same,Ki,wild-type A2aR,1.6e-05 M
